Values of other authors, collected in patent US20210206875A1, “ERBB-2 TARGETING AGENT AND A BISPECIFIC ANTIBODY WITH ANTIGEN-BINDING SITES THAT BIND AN EPITOPE ON AN EXTRACELLULAR PART OF ERB-2 AND ERBB-3, FOR TREATMENT OF AN INDIVIDUAL WITH AN ERBB-2, ERBB-2/ERBB-3 POSITIVE TUMOUR” (Merus N.V., priority 2017, published 2021).

Details: adjuvant setting with DOX; cited from earlier work

Substance: trastuzumab
- risk for developing asymptomatic cardiac dysfunction: about 25%
